CycPeptMPDB entries from one study

Collected by the curators of CycPeptMPDB (Li et al. 2023) from Naylor et al. 2018, doi:10.1021/acs.jmedchem.8b01259.

PAMPA is the parallel artificial membrane permeability assay, which has no cells and reads passive diffusion.
RRCK values come from monolayers of low-efflux MDCK cells.
Permeability is given as log10 of P in cm/s; higher (less negative) is more permeable.
"–" marks a cell with nothing listed here.

| SMILES | PAMPA (log10 cm/s) | RRCK (log10 cm/s) |
|---|---|---|
| CC[C@H](C)[C@@H]1NC(=O)[C@H](Cc2ccccc2)N(C)C(=O)[C@H](Cc2ccccc2)NC(=O)CN(C)C(=O)[C@@H]2CCCN2C(=O)[C@@H](Cc2ccccc2)N(C)C(=O)[C@H](CC(C)C)NC1=O | – | -6.54 |
| CC[C@H]1C(=O)N[C@@H](CC(C)C)C(=O)N2CCC[C@@H]2C(=O)N(C)[C@@H](Cc2ccccc2)C(=O)N[C@@H](CC(C)C)C(=O)N(C)[C@H](C)C(=O)N1C | -4.87 | – |
| CC(C)C[C@@H]1NC(=O)[C@@H](CC(C)C)NC(=O)[C@H]2CCCN2C(=O)[C@H](Cc2ccc(O)cc2)NC(=O)[C@@H](CC(C)C)NC(=O)[C@@H](CC(C)C)NC1=O | – | -5.71 |
| CC(C)C[C@@H]1NC(=O)[C@H](CC(C)C)NC(=O)[C@@H](CC(C)C)NC(=O)[C@@H](CC(C)C)NC(=O)[C@H]2CCCN2C(=O)[C@H](Cc2ccc(O)cc2)NC1=O | – | -6.02 |
| CC(C)C[C@@H]1NC(=O)[C@H](CC(C)C)NC(=O)[C@@H](CC(C)C)NC(=O)[C@H]2CCCN2C(=O)[C@H](Cc2ccc(O)cc2)NC(=O)[C@H](CC(C)C)NC1=O | – | -5.55 |
| CC(C)C[C@@H]1NC(=O)[C@@H](CC(C)C)NC(=O)[C@H](CC(C)C)NC(=O)[C@@H](CC(C)C)NC(=O)[C@H]2CCCN2C(=O)[C@H](Cc2ccc(O)cc2)NC1=O | – | -6.08 |
| CC(C)C[C@@H]1NC(=O)[C@H](CC(C)C)NC(=O)[C@@H](CC(C)C)NC(=O)[C@H]2CCCN2C(=O)[C@H](Cc2ccc(O)cc2)NC(=O)[C@@H](CC(C)C)NC1=O | – | -4.71 |
| CC(C)C[C@@H]1NC(=O)[C@@H](CC(C)C)NC(=O)[C@@H](CC(C)C)NC(=O)[C@H]2CCCN2C(=O)[C@H](Cc2ccc(O)cc2)NC(=O)[C@@H](CC(C)C)NC1=O | – | -5.39 |
| CC(C)C[C@H]1NC(=O)[C@H]2CCCN2C(=O)[C@H](Cc2ccc(O)cc2)NC(=O)[C@@H](CC(C)C)NC(=O)[C@@H](CC(C)C)NC(=O)[C@@H](CC(C)C)NC1=O | – | -6.31 |
| CC(C)C[C@@H]1NC(=O)[C@@H](CC(C)C)NC(=O)[C@@H](CC(C)C)NC(=O)[C@@H](CC(C)C)NC(=O)[C@H]2CCCN2C(=O)[C@H](Cc2ccc(O)cc2)NC1=O | – | -6.44 |

Extract of 2 entries:

| SMILES | PAMPA (log10 cm/s) | RRCK (log10 cm/s) |
|---|---|---|
| CC(C)C[C@@H]1NC(=O)[C@@H](CC(C)C)NC(=O)[C@H](CC(C)C)NC(=O)[C@@H](CC(C)C)NC(=O)[C@H]2CCCN2C(=O)[C@H](Cc2ccc(O)cc2)NC1=O | – | -6.08 |
| CC(C)C[C@@H]1NC(=O)[C@H](CC(C)C)NC(=O)[C@@H](CC(C)C)NC(=O)[C@H]2CCCN2C(=O)[C@H](Cc2ccc(O)cc2)NC(=O)[C@H](CC(C)C)NC1=O | – | -5.55 |

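Lipid, pH, incubation time, direction and concentration are not recorded in the data file. Other peptides of the study may be missing here. Peptides that the database sets to -10, its floor, are left out.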